Data: PubChem BioAssay (NCI)
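Five compound concentrations were applied to cells in 96-well plates for 48 hours; endpoints were derived by simple linear interpolation of the resulting dose-response curve. At the GI50, growth is halved. Definition used: TGI = concentration required for complete inhibition of growth.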

Columns and labels:
Assay in all cases: NCI anticancer screen, dose series, 48 h
[1] = system: SF-295 CNS
[2] = system: SNB-19 CNS
[3] = system: BT-549 breast
[4] = system: NCI-H460 lung
[5] = system: EKVX NSCLC
[6] = system: DU-145 prostate
[7] = system: OVCAR-8 ovarian
[8] = system: U251 CNS
[9] = system: SK-OV-3 ovarian
[10] = system: OVCAR-5 ovarian
[11] = system: CCRF-CEM leukemia
[12] = system: K-562 leukemia
[13] = system: HCT-15 colon
[14] = system: UACC-62 melanoma
[15] = system: KM12 colon
[16] = system: NCI-H322M lung
[17] = system: CAKI-1 renal
[18] = system: HL-60(TB) leukemia
[19] = system: RXF 393 renal
[20] = system: SNB-75 CNS
[21] = system: MDA-MB-435
[22] = system: 786-0 renal
[23] = system: COLO 205 colon
[24] = system: PC-3 prostate
[25] = system: MDA-N
[26] = system: UACC-257 melanoma
[27] = system: SF-539 CNS
[28] = system: HT29 colon
[29] = system: HCC-2998 colon

With `CCP1(=O)N(C)[C@@H]2CCCC[C@H]2N1C` the TGI [1] was over 100 µM, the GI50 [2] was over 100 µM and the TGI [2] was over 100 µM. The GI50 [3] was over 100 µM, the TGI [3] was over 100 µM and the GI50 [4] was over 100 µM. For the same molecule, the TGI [4] was over 100 µM, the GI50 [5] was over 100 µM and the TGI [5] was over 100 µM. The GI50 [6] was over 100 µM, the TGI [6] was over 100 µM and the GI50 [7] was over 100 µM. The TGI [7] was over 100 µM, the GI50 [8] was over 100 µM and the TGI [8] was over 100 µM. The GI50 [9] was over 100 µM, the TGI [9] was over 100 µM and the GI50 [10] was over 100 µM. It also gave a TGI [10] of over 100 µM, a GI50 [11] of over 100 µM and a TGI [11] of over 100 µM. For the same molecule, the GI50 [12] was over 100 µM, the TGI [12] was over 100 µM and the GI50 [13] was over 100 µM. For the same molecule, the TGI [13] was over 100 µM, the GI50 [14] was over 100 µM and the TGI [14] was over 100 µM. It also gave a GI50 [15] of over 100 µM, a TGI [15] of over 100 µM and a GI50 [16] of over 100 µM. For the same molecule, the TGI [16] was over 100 µM, the GI50 [17] was over 100 µM and the TGI [17] was over 100 µM. For the same molecule, the GI50 [18] was over 100 µM, the TGI [18] was over 100 µM and the GI50 [19] was over 100 µM. It also gave a TGI [19] of over 100 µM, a GI50 [20] of over 100 µM and a TGI [20] of over 100 µM. The GI50 [21] was over 100 µM, the TGI [21] was over 100 µM and the GI50 [22] was over 100 µM. For the same molecule, the TGI [22] was over 100 µM, the GI50 [23] was over 100 µM and the TGI [23] was over 100 µM. The GI50 [24] was over 100 µM, the TGI [24] was over 100 µM and the GI50 [25] was over 100 µM. The TGI [25] was over 100 µM, the GI50 [26] was over 100 µM and the TGI [26] was over 100 µM. For the same molecule, the GI50 [27] was over 100 µM, the TGI [27] was over 100 µM and the GI50 [28] was over 100 µM. For the same molecule, the TGI [28] was over 100 µM, the GI50 [29] was over 100 µM and the TGI [29] was over 100 µM.
